The results in this text go back to US9549932B2, “2-(morpholin-4-yl)-1,7-naphthyridines” (BAYER PHARMA AKTIENGESELLSCHAFT, priority 2014, dated 2017).

By UniProt entry, the sequences of proteins in these tests, tags left out. Chains listed by the source or under a name are the forms on record and can include a tag or linker.
UniProt Q13535, other isoform, or with tags, fused parts or gaps: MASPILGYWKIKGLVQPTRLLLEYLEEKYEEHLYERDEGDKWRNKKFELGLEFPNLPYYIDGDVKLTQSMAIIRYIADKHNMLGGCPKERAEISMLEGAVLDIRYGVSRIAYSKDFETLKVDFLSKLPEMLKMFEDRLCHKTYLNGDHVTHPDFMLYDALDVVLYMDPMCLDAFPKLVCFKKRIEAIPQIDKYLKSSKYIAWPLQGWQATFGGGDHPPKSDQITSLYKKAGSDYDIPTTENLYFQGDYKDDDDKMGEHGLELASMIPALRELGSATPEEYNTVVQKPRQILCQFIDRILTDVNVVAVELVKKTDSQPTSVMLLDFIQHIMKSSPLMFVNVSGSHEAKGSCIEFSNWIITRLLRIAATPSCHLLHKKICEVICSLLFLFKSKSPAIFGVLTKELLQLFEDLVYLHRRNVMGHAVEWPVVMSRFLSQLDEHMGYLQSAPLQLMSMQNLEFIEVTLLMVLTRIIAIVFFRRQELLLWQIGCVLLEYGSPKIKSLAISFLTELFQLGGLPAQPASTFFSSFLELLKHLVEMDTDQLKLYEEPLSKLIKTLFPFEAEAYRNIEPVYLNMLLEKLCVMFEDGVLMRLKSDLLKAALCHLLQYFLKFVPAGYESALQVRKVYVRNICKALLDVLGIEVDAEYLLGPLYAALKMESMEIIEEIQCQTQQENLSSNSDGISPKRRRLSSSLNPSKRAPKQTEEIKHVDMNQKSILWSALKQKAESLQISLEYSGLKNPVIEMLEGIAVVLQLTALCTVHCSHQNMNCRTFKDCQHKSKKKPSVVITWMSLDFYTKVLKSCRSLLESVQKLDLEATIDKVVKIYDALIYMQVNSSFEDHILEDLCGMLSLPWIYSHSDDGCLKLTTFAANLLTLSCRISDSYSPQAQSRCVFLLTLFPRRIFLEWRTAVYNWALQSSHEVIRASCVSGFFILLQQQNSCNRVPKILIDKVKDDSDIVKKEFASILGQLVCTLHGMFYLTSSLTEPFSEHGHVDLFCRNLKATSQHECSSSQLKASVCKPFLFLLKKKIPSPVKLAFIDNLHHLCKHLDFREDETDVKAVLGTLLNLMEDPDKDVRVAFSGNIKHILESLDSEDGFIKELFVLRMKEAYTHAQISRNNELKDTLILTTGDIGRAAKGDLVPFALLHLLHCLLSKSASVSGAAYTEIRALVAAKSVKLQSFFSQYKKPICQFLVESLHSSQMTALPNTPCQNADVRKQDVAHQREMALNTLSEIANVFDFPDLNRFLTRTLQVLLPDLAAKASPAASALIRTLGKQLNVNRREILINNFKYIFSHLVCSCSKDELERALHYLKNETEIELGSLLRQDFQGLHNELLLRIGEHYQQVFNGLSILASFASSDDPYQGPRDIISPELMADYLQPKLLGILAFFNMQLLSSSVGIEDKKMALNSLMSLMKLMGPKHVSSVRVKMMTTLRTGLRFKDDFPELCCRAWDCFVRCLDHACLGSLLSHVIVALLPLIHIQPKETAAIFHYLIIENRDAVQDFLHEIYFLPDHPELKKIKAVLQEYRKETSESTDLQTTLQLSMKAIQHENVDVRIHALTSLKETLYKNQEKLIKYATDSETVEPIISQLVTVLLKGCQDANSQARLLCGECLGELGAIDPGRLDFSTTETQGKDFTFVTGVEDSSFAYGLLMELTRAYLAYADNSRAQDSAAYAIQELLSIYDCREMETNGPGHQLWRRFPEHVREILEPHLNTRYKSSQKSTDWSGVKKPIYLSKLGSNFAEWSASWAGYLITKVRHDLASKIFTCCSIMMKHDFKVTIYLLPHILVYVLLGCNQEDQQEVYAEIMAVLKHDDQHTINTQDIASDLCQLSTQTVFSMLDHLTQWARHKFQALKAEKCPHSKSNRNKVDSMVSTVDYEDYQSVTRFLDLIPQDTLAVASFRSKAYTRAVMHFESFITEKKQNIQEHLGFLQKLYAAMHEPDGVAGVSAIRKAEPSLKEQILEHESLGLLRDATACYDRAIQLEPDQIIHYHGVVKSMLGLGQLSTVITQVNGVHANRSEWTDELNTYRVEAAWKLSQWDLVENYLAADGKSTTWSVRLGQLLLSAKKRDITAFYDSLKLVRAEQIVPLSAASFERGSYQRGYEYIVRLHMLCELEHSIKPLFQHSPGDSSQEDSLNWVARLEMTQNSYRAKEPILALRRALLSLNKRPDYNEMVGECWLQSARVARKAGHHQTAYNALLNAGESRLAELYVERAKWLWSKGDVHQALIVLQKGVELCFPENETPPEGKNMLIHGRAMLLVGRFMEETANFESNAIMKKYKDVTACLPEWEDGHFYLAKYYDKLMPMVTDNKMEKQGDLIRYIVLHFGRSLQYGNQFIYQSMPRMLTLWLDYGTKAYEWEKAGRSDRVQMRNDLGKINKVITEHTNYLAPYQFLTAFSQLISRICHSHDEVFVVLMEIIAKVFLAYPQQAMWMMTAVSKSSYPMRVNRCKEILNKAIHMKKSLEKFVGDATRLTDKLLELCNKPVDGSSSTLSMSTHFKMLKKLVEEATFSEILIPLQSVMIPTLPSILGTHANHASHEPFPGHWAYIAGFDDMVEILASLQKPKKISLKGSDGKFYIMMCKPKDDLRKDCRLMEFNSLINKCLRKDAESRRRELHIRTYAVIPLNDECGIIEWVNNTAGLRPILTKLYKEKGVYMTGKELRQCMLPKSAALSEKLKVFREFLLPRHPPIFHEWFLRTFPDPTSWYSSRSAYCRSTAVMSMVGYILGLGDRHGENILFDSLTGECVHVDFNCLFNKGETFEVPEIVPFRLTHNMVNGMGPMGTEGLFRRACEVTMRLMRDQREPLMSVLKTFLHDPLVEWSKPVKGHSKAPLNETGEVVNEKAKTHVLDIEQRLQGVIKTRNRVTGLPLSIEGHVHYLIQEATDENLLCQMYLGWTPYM

In the experiment the target is full-length human ATR protein (Homo sapiens (Human), UniProt Q13535). Put plainly: Binding assay ATR (TR-FRET tracer displacement). Conditions: tracer A. From the text: To determine of binding activity of the test compounds, full-length human ATR protein was expressed and purified together with ATRIP as described above. Furthermore, a fluorescently labelled compound (either tracer A or B as described above) was used as a tracer molecule. Detection of the binding event of the tracer was achieved by time-resolved fluorescence energy transfer (TR-FRET). We used an anti-GST-Terbium antibody (CisBio) that binds to the GST-tag at the N-terminus of ATR-kinase. […] Displacement of the fluorescent tracer by a test compound leads to a reduction of the TR-FRET-signal.
For the assay 50 nl of a 100-fold concentrated solution of the test compound in DMSO was pipetted into a black low volume 384well microtiter plate (MTP, Greiner Bio-One, Frickenhausen, Germany). […] The ATR-working solution was incubated for 30 min at 22° C. prior to dispensing to pre-form the complex of antiGST-Tb+GST-ATR+ATRIP. Then, 3 μl of the ATR-working solution were added to the test compound and the mixture was incubated for 10 min at 22° C. to allow pre-binding of the test compounds to ATR/ATRIP. Then, 2 μl of a 100 nM solution of either tracer A or B in assay buffer were added to the ATR-working solution. The resulting mixture was incubated for 30 min at 22° C. […] The dilution series were prepared separately before the assay on the level of the 100 fold concentrated solutions in DMSO by serial 1:3.4 dilutions in duplicate values for each concentration. IC50 values were calculated by a 4 parameter fit using standard software (GraphPad prism or equivalent).
(In TR-FRET formats the signal depends on donor and acceptor labels being close together.)

A word on the IC50: it is the concentration that inhibits the measured activity by half. Lower therefore signals greater potency in that assay. Consider `Cc1cc(-c2cc(N3CCOC[C@H]3C)nc3c(-c4ccn[nH]4)nccc23)cnc1F` [Example 92, 4-(6-fluoro-5-methylpyridin-3-yl)-2-[(3R)-3-methylmorpholin-4-yl]-8-(1H-pyrazol-5-yl)-1,7-naphthyridine], for which the IC50 turned out to be 13.7 nM.

Compound `CN(C)c1cccc(-c2cc(N3CCOCC3)nc3c(-c4ccn[nH]4)nccc23)c1` [Example 320, N,N-dimethyl-3-[2-(morpholin-4-yl)-8-(1H-pyrazol-5-yl)-1,7-naphthyridin-4-yl]aniline] registered an IC50 of 46.8 nM. This IC50 lies about 3.4-fold higher than the previous one.

Take `CN(C)c1ccc(-c2cc(N3CCOCC3)nc3c(-c4ccn[nH]4)nccc23)cn1` [Example 187, N,N-dimethyl-5-[2-(morpholin-4-yl)-8-(1H-pyrazol-5-yl)-1,7-naphthyridin-4-yl]pyridin-2-amine]: the IC50 came out at 96.8 nM.

The compound `c1cc(-c2cc(N3CCOCC3)nc3c(-c4ccn[nH]4)nccc23)cc(-n2cccn2)c1` [Example 336, 2-(morpholin-4-yl)-8-(1H-pyrazol-5-yl)-4-[3-(1H-pyrazol-1-yl)phenyl]-1,7-naphthyridine] came in with an IC50 of 120 nM.

The compound `Cc1c(-c2cc(N3CCOCC3)nc3c(-c4ccn[nH]4)nccc23)cnn1C` [Example 272, 4-(1,5-dimethyl-1H-pyrazol-4-yl)-2-(morpholin-4-yl)-8-(1H-pyrazol-5-yl)-1,7-naphthyridine] gave an IC50 of 21.3 nM.

`C[C@@H]1COCCN1c1cc(-c2cnn(-c3ccccc3)c2)c2ccnc(-c3ccn[nH]3)c2n1` [Example 265, 2-[(3R)-3-methylmorpholin-4-yl]-4-(1-phenyl-1H-pyrazol-4-yl)-8-(1H-pyrazol-5-yl)-1,7-naphthyridine] gave an IC50 of 74.6 nM.

As for `C[C@@H]1COCCN1c1cc(-c2ccc(F)nc2)c2ccnc(-c3ccn[nH]3)c2n1` [Example 94, 4-(6-fluoropyridin-3-yl)-2-[(3R)-3-methylmorpholin-4-yl]-8-(1H-pyrazol-5-yl)-1,7-naphthyridine], the IC50 is 13.7 nM.

With `CC(C)n1cc(-c2cc(N3CCOC[C@H]3C)nc3c(-c4ccn[nH]4)nccc23)cn1` [Example 255, 2-[(3R)-3-methylmorpholin-4-yl]-4-[1-(propan-2-yl)-1H-pyrazol-4-yl]-8-(1H-pyrazol-5-yl)-1,7-naphthyridine], the IC50 amounted to 42.7 nM.

For the compound `CC1CCCN(c2cc(N3CCOCC3)nc3c(-c4ccn[nH]4)nccc23)C1` (stereo not drawn) [Example 414, 4-(3-methylpiperidin-1-yl)-2-(morpholin-4-yl)-8-(1H-pyrazol-5-yl)-1,7-naphthyridine], the IC50 is 90.8 nM. This IC50 is about 2.1-fold higher than that of the compound before.
